The text below walks through data of PubChem BioAssay AID602363 (Broad Institute, 2012).

Several values for one entry are separate records, joined by “and”; a condition that tells them apart may be missing. Identical values can stand only once. The whole screen tested about 350,000 compounds, of which about 450 (0.13%) were called active.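 The calls were made as follows: active = replicate mean at a twofold rise or more (about +100% in these data); inactive = the rest.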 For the sample, actives were picked, then their nearest neighbours and some compounds at random. The source holds several records for some structures; these can differ, active in one and inactive in another.

This assay in a line: UUG initiation codon usage in yeast – whole organism, S. cerevisiae, single point, plate reader, primary screen (AID 602363).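 Also: firefly luciferase made from a UUG start codon reports start codon fidelity.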 The settings on record: S. cerevisiae UUG-firefly luciferase reporter, luminescence/redox ratio; at 18.7 µM; stronger effect = higher value.
Take `CC1CCN(C(=O)/C(=C\c2ccccc2)NC(=O)c2ccccc2)CC1`: the activity score is -8.7% (inactive). With `CN1CCN(C(=O)/C(=C\c2cccs2)NC(=O)c2cccs2)CC1`, the activity score is 0.022% (active).

With `Cc1ccc(C(=O)N/C(=C\c2cn(C)c3ccccc23)C(=O)N2CCN(C)CC2)cc1`, the activity score is 0.501% (inactive). The figure for `CCNC(=O)C[C@@H]1CC[C@@H]2[C@H](COc3ccc(NS(=O)(=O)c4ccccc4C)cc3C(=O)N2C)O1` is -8.72% (inactive); for `O=C(C[C@@H]1C=C[C@H](NC(=O)c2ccc3c(c2)OCO3)[C@H](CO)O1)NCc1ccc(Oc2ccccc2)cc1` it is 8.13% (inactive); for `Cc1noc(C)c1S(=O)(=O)N(C)C[C@@H]1OCCCC[C@H](C)Oc2ccc(NC(=O)NC(C)C)cc2C(=O)N([C@H](C)CO)C[C@@H]1C` it is 27% (inactive). The figure for `CC(C)C#Cc1cnc2c(c1)C(=O)N([C@@H](C)CO)C[C@@H](C)[C@@H](CN(C)C(=O)c1cccc(F)c1)O2` is 0.693% (inactive); for `C[C@@H]1CCCCO[C@@H](CN(C)C(=O)C2CCCCC2)[C@H](C)CN([C@H](C)CO)C(=O)c2cc(NC(=O)CCC(F)(F)F)ccc2O1` it is 21.1% (inactive); for `COc1ccccc1CNC(=O)C[C@@H]1CC[C@H](NC(=O)CN(C)C)[C@@H](CO)O1` it is -14.1% (inactive). Next, `COc1ccc(NC(=O)Nc2ccc3c(c2)C(=O)N([C@@H](C)CO)C[C@@H](C)[C@H](CN(C)C(=O)CCC(F)(F)F)OCCCC[C@@H](C)O3)cc1`: 5.29% (inactive); `COc1cccc(-c2ccc3c(c2)O[C@H](CN(C)C(=O)c2ccccc2F)[C@@H](C)CN([C@@H](C)CO)S3(=O)=O)c1`: 0.848% (inactive); `CCCNC(=O)[C@@H]1[C@@H](CO)[C@@H]2Cn3c(ccc(-c4cccc(OC)c4)c3=O)[C@H]1N2C(=O)NCCC`: 4.04% (inactive). On to `C[C@H]1CN([C@@H](C)CO)C(=O)Cc2cc(NS(=O)(=O)c3ccc(Cl)cc3)ccc2O[C@H]1CN(C)S(C)(=O)=O`, for which the activity score was -4.94% (inactive). Next, `Cn1nc(-c2ccccc2)c(-c2nc(-c3ccc(Cl)cc3)no2)c1Cl`: -23.8% (inactive).

Take `Cc1onc(-c2ccc(Cl)cc2)c1-c1ccnn1S(=O)(=O)c1ccc(Cl)cc1`: the activity score is 174% (active). As for `COc1cc(-c2c(-c3ccc4c(c3)OCO4)noc2C)ccc1F`, the activity score is -5.42% (inactive). Next, `C[C@H]1CN([C@@H](C)CO)S(=O)(=O)c2ccc(Br)cc2O[C@H]1CN(C)C(=O)C1CC1`: 11.3% (inactive); `CO[C@@H]1CN(C)C(=O)c2cc(NC(C)=O)ccc2OC[C@H](C)N(C(=O)Cc2ccccn2)C[C@@H]1C`: -3.54% (inactive); `C[C@@H]1CN([C@@H](C)CO)C(=O)c2cc(NC(=O)c3ccncc3)ccc2O[C@H]1CN(C)S(=O)(=O)c1ccc(Cl)cc1`: 0.708% (inactive). The figure for `C[C@H]1CN([C@@H](C)CO)C(=O)c2cc(-c3ccncc3)cnc2O[C@@H]1CN(C)C(=O)C1CCCCC1` is -11.6% (inactive); for `C[C@@H]1CN([C@@H](C)CO)C(=O)c2cc(Br)cnc2O[C@@H]1CN(C)C(=O)C1CCCCC1` it is 137% (active) and -1.46% (inactive).

As to `C[C@@H]1CN([C@H](C)CO)C(=O)c2cc(Br)cnc2O[C@@H]1CN(C)C(=O)C1CC1`, the activity score is -8.5% (inactive). Next, `CCC(=O)N(C)C[C@H]1Oc2cc(-c3cccc(C#N)c3)ccc2S(=O)(=O)N([C@@H](C)CO)C[C@@H]1C`: 12.2% (inactive). In the case of `CCS(=O)(=O)Nc1ccc2c(c1)C(=O)N(C)[C@H]1CC[C@H](CC(=O)Nc3ccccc3)O[C@@H]1CO2`, the activity score was 1.74% (inactive).

As to `CC(C)NC(=O)N[C@H]1CC[C@@H](CCNC(=O)C2CCC2)O[C@@H]1CO`, the activity score was -11.4% (inactive). On to `COc1ccccc1-c1ccc([C@@H]2[C@@H](CO)N3CCCCN(S(=O)(=O)c4cn(C)cn4)C[C@H]23)cc1`, for which the activity score was -0.721% (inactive). Regarding `COc1ccc(NC(=O)N(C)C[C@@H]2Oc3ccc(NC(=O)Cn4cnnn4)cc3C(=O)N([C@H](C)CO)C[C@@H]2C)cc1`, the activity score is 2.52% (inactive). In the case of `O=C(N[C@H]1CC[C@H](CCNS(=O)(=O)c2ccc(F)cc2)O[C@H]1CO)c1cccnc1`, the activity score is -1.19% (inactive). The figure for `C[C@H]1CCCCO[C@@H](CN(C)Cc2ccc3c(c2)OCO3)[C@@H](C)CN([C@@H](C)CO)C(=O)c2cc(NC(=O)Nc3ccc(F)cc3)ccc2O1` is 18.3% (inactive).
